# In US20220273768A1 (The George Washington University, priority 2019, published 2022):
# System: DIO C57BL/6J mice
# Details: mouse, in vivo
substance,measurement,value
leptin,minute ventilation during wakefulness,1.8 ± 0.6 mL/min/g
